Results: ChEMBL document CHEMBL4020826, “Synthesis and Pharmacological Characterization of C4β-Amide-Substituted 2-Aminobicyclo[3.1.0]hexane-2,6-dicarboxylates. Identification of (1 S,2 S,4 S,5 R,6 S)-2-Amino-4-[(3-methoxybenzoyl)amino]bicyclo[3.1.0]hexane-2,6-dicarboxylic Acid (LY2794193), a Highly Potent and Selective mGlu3 Receptor …” (J Med Chem, 2018)

Chains of the proteins cited; added tags and fusions are not shown. Lines headed by an entry give the natural chain unless they say otherwise; changes in a name come on top.
UniProt P31421: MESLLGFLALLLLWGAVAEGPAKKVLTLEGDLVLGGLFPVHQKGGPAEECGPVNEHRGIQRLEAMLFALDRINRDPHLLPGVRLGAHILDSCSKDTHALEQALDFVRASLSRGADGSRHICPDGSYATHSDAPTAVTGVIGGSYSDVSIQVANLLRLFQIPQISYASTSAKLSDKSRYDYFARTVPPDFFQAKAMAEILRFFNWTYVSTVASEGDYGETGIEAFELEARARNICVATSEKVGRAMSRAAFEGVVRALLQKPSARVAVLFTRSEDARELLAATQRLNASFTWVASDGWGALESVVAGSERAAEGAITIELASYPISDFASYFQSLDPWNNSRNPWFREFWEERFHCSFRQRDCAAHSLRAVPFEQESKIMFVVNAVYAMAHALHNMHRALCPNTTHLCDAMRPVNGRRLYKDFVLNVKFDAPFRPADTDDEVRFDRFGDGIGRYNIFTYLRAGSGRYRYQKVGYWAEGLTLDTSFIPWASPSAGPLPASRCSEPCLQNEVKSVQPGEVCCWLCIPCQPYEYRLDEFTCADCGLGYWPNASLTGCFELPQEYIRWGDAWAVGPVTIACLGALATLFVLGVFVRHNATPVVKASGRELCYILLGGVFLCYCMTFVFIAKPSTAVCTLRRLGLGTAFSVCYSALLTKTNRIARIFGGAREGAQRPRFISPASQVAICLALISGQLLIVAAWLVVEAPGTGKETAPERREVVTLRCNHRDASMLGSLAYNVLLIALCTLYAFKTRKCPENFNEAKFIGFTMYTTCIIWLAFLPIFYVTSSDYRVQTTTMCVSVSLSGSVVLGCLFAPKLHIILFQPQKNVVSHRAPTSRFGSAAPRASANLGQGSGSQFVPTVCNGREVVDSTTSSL
UniProt P31422: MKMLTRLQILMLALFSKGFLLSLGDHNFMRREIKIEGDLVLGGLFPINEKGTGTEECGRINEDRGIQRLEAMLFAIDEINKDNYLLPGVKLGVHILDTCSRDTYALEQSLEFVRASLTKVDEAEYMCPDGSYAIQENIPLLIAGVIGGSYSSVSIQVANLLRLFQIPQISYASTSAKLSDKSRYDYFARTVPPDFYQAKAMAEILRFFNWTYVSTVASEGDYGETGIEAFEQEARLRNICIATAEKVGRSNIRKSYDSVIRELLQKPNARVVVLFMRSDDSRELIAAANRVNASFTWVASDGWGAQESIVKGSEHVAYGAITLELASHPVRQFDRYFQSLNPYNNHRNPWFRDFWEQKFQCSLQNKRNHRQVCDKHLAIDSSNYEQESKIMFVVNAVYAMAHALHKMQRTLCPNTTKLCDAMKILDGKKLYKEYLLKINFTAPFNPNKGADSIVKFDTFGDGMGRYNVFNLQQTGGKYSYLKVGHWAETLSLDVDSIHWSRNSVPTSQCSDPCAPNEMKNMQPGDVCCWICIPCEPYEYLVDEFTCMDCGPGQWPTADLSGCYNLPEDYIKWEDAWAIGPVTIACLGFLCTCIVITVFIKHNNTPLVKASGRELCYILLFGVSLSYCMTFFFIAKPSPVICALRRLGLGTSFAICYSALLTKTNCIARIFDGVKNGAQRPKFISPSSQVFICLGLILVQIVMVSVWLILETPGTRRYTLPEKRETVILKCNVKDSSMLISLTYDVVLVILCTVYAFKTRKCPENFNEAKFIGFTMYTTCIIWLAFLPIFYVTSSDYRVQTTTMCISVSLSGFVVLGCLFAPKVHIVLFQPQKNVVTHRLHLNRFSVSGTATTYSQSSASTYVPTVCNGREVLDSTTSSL

Legend:
[1] = biological target: T1, Group II metabotropic glutamate receptor (mGlu2/mGlu3) (Rattus norvegicus, UniProt P31421+P31422); assay: Displacement of [3H]-LY459477 from mGlu2/3 receptor in Sprague-Dawley rat forebrain primary cortical membranes after 90 mins by liquid scintillation counting
[2] = biological target: T1, Group II metabotropic glutamate receptor (mGlu2/mGlu3); assay: Agonist activity at mGlu2/3 receptor in Sprague-Dawley rat forebrain assessed as inhibition of spontaneous Ca2+ oscillations in cortical neurons after 300 secs by FLIPR assay; type: functional

Ki [1]: 0.476 µM
EC50 [2]: 0.0098 µM
Structure (SMILES): N[C@@]1(C(=O)O)CC[C@H]2[C@H](C(=O)O)[C@H]21 [EGLUMETAD]
